# An excerpt weighted towards active compounds, which were near 0.7% of everything screened.
# Sa growth 42C – inhibitors of Staphylococcus aureus growth at 42 °C | 170,000 compounds, 0.53% hits | S. aureus RN4220 growth, OD600, 20 h; active compounds read low | relative growth, % (concentration not given with the values) | AID 720641;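 active = relative growth at most 50% at the other temperature and 20+ points below 30 °C, or under 10% at both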
# HCMV UL50-53 inh – inhibitors of HCMV UL50-UL53 nuclear egress complex interaction; HTRF UL50-UL53 interaction, normalized percent inhibition; inhibition, % (no concentration beside the values); 190,000 compounds, 0.15% hits; AID 1918969; in the data active = inhibition above about 27%, passing the limit was not always enough
# GIV Gai3 FP – GIV-Galpha-i interaction inhibition. AID 1224905. actives 0.42% (n = 210,000). percent of control (FP), % (test concentration not listed). Galpha-i3/FITC-GIV peptide fluorescence polarization, 90 min; stronger effect = lower value; scaled: aluminum fluoride 0%, vehicle 100%;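 active = replicate mean at 85% of control or lower, very high polarization wells dropped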;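 also: wells of about 15 µL received 100 nL stock; the first replicate is given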
# Starred values were filed as active, the others as inactive; x = no result given.
smiles: CCOC(=O)c1cc2ncc(C(F)(F)F)cc2s1
  Sa growth 42C = 93; HCMV UL50-53 inh = -21; GIV Gai3 FP = 96

smiles: NNC(=O)c1cc2ncc(C(F)(F)F)cc2s1
  Sa growth 42C = 0.0*; HCMV UL50-53 inh = -30; GIV Gai3 FP = 100

smiles: Nc1c(C(=O)NC2CC2)sc2nc(-c3ccccc3)cc(-c3ccc(F)cc3)c12
  Sa growth 42C = x; HCMV UL50-53 inh = x; GIV Gai3 FP = 102

smiles: COc1ccccc1-c1c(C)nn2c(NCCC3=CCCCC3)cc(C)nc12
  Sa growth 42C = x; HCMV UL50-53 inh = -25; GIV Gai3 FP = 103

smiles: CN1C(=O)C(=Cc2cc(Br)ccc2OCc2ccccc2)C(=O)N(C)C1=O
  Sa growth 42C = x; HCMV UL50-53 inh = -3; GIV Gai3 FP = 105

smiles: Cc1ccc(OCCOc2ccc(Br)cc2C=C2C(=O)NC(=S)NC2=O)cc1
  Sa growth 42C = x; HCMV UL50-53 inh = -25; GIV Gai3 FP = 95

smiles: CCOc1cc(C=C2C(=O)NC(=S)NC2=O)ccc1OCc1ccccc1Cl
  Sa growth 42C = x; HCMV UL50-53 inh = -11; GIV Gai3 FP = 105

smiles: CCOC(=O)COc1ccc(Br)cc1C=C1C(=O)NC(=O)NC1=O
  Sa growth 42C = x; HCMV UL50-53 inh = 57*; GIV Gai3 FP = 97

smiles: O=C1NC(=S)NC(=O)C1=Cc1ccc(OCc2ccccc2)c(Br)c1
  Sa growth 42C = x; HCMV UL50-53 inh = 66*; GIV Gai3 FP = 99

smiles: O=C1NC(=O)C(=Cc2cc(Br)ccc2OCc2ccccc2)C(=O)N1
  Sa growth 42C = x; HCMV UL50-53 inh = 89*; GIV Gai3 FP = 106

smiles: CCOC(=O)c1c2c(n3ccccc13)C(=O)c1ccccc1C2=O
  Sa growth 42C = 9.7*; HCMV UL50-53 inh = x; GIV Gai3 FP = -42*

smiles: CCOC(=O)C1=C(O)c2ccccc2C1=O
  Sa growth 42C = 122; HCMV UL50-53 inh = x; GIV Gai3 FP = 101

smiles: O=C(NC1CCCC1)c1cnc2sc3c(n2c1=O)CCC3
  Sa growth 42C = x; HCMV UL50-53 inh = -4; GIV Gai3 FP = 98

smiles: CCC(C(=O)OC(C)C)n1cnc2sc3c(c2c1=O)CCC(C)C3 (stereo not drawn)
  Sa growth 42C = 34*; HCMV UL50-53 inh = 3; GIV Gai3 FP = 98

smiles: CC1CCc2c(sc3ncn(CC(=O)N4CCCC4)c(=O)c23)C1 (stereo not drawn)
  Sa growth 42C = 109; HCMV UL50-53 inh = -14; GIV Gai3 FP = 100

smiles: N#Cc1ccc(CSc2nc3ccc(Cl)cc3[nH]2)cc1
  Sa growth 42C = 65; HCMV UL50-53 inh = -8; GIV Gai3 FP = x

smiles: FC(F)(F)c1ccc2nc(SCc3ccc(Br)cc3)[nH]c2c1
  Sa growth 42C = 6.8*; HCMV UL50-53 inh = 9; GIV Gai3 FP = 99

smiles: Cc1nc(-c2ccc(Cl)c(S(=O)(=O)N3CCCC(C(=O)NC4CCCC4)C3)c2)no1 (stereo not drawn)
  Sa growth 42C = x; HCMV UL50-53 inh = x; GIV Gai3 FP = 98

smiles: CC1=NN(c2nc3ccccc3s2)C(=O)C1
  Sa growth 42C = 92; HCMV UL50-53 inh = -38; GIV Gai3 FP = 104

smiles: CC1=NN(c2nc3ccccc3s2)C(=O)C1CCC(C)C (stereo not drawn)
  Sa growth 42C = 1.9*; HCMV UL50-53 inh = 16; GIV Gai3 FP = 109

smiles: CC(C)N1C(=O)c2ccccc2Sc2cc(NC(=O)C3CC(=O)N(c4ccccc4)C3)ccc21 (stereo not drawn)
  Sa growth 42C = x; HCMV UL50-53 inh = x; GIV Gai3 FP = 96

smiles: COc1ccc2[nH]c(C)cc(=S)c2c1
  Sa growth 42C = 83; HCMV UL50-53 inh = x; GIV Gai3 FP = 97

smiles: Cc1ccc2[nH]c(C)cc(=S)c2c1
  Sa growth 42C = 5.8*; HCMV UL50-53 inh = -103; GIV Gai3 FP = 104

smiles: O=C(Nc1ccc(Br)cc1F)c1cc2ccccn2n1
  Sa growth 42C = x; HCMV UL50-53 inh = -9; GIV Gai3 FP = 104

smiles: COc1cc(OC)c(Nc2c(C(=O)N3CCOCC3)cnc3ccccc23)cc1Cl
  Sa growth 42C = x; HCMV UL50-53 inh = -28; GIV Gai3 FP = 85*

smiles: Cc1c(Cl)cccc1Nc1c(C(=O)N2CCOCC2)cnc2ccccc12
  Sa growth 42C = x; HCMV UL50-53 inh = -14; GIV Gai3 FP = 99

smiles: Cc1ccc(CNS(=O)(=O)c2ccc(-c3n[nH]c(C)c3C)o2)o1
  Sa growth 42C = x; HCMV UL50-53 inh = -21; GIV Gai3 FP = 110

smiles: O=C(NCc1ccc2c(c1)OCO2)C1CCN(c2ccc(-c3cccc(F)c3)nn2)CC1
  Sa growth 42C = x; HCMV UL50-53 inh = -18; GIV Gai3 FP = 100

smiles: CCOc1ccc(C2=NN3C(C2)c2cccc(OC)c2OC3c2cccc(Cl)c2)cc1 (stereo not drawn)
  Sa growth 42C = x; HCMV UL50-53 inh = x; GIV Gai3 FP = 118

smiles: Cc1sc2ncnc(SC(C)C(=O)NC3(C#N)CCCCC3)c2c1C (stereo not drawn)
  Sa growth 42C = 107; HCMV UL50-53 inh = -29; GIV Gai3 FP = x

smiles: CC(=O)Nc1ccc(S(=O)(=O)n2c(SCc3ccccc3F)nc3ccccc32)cc1Cl
  Sa growth 42C = x; HCMV UL50-53 inh = x; GIV Gai3 FP = 103

smiles: Cc1ccc(NC(=O)CS(=O)CC(=O)Nc2ccc(N3CCOCC3)cc2)cc1Cl (stereo not drawn)
  Sa growth 42C = 79; HCMV UL50-53 inh = -7; GIV Gai3 FP = 99

smiles: Cc1ccc(C)c(OCCCC(=O)Nc2ccc(N3CCOCC3)cc2)c1
  Sa growth 42C = 80; HCMV UL50-53 inh = 92*; GIV Gai3 FP = 101

smiles: O=C(NC1CC1)c1cc(-c2ccccc2)nn1-c1ccccc1
  Sa growth 42C = 88; HCMV UL50-53 inh = -3; GIV Gai3 FP = x

smiles: Cc1c(Cl)sn(-c2ccc(Cl)cc2)c1=O
  Sa growth 42C = -1.2*; HCMV UL50-53 inh = -25; GIV Gai3 FP = 101

smiles: O=C1CSCC(=O)N1c1ccc(Cl)cc1
  Sa growth 42C = 100; HCMV UL50-53 inh = -25; GIV Gai3 FP = 100

smiles: CC(=O)N(C(C)=O)N1C(=O)c2cccc3c(N4CCOCC4)ccc(c23)C1=O
  Sa growth 42C = 81; HCMV UL50-53 inh = -97; GIV Gai3 FP = 165

smiles: O=C1c2cccc3c(N4CCCCC4)ccc(c23)C(=O)N1c1ccccn1
  Sa growth 42C = 93; HCMV UL50-53 inh = -120; GIV Gai3 FP = -29*

smiles: Nc1ccccc1N=CC1=C(O)CC(c2ccccc2)CC1=O (stereo not drawn)
  Sa growth 42C = 102; HCMV UL50-53 inh = -51; GIV Gai3 FP = x

smiles: Cc1ccc(-c2nc(C3CCN(S(=O)(=O)c4ccc(F)c(C)c4)CC3)no2)cc1
  Sa growth 42C = x; HCMV UL50-53 inh = x; GIV Gai3 FP = 100

smiles: CCn1c2ccccc2c2cc(/C=C3\CCC(C4CCCC4)C3=O)ccc21 (stereo not drawn)
  Sa growth 42C = 112; HCMV UL50-53 inh = x; GIV Gai3 FP = 106

smiles: CCn1c2ccccc2c2cc(/C=C3\Cc4ccccc4C3=O)ccc21
  Sa growth 42C = 96; HCMV UL50-53 inh = x; GIV Gai3 FP = -74*

smiles: O=C1NC(=O)C(=Cc2ccc(N3CCCC3)cc2)C(=O)N1
  Sa growth 42C = 124; HCMV UL50-53 inh = -4; GIV Gai3 FP = 99

smiles: O=C1C(=Cc2ccc(N3CCCC3)cc2)C(=O)c2ccccc21
  Sa growth 42C = 62; HCMV UL50-53 inh = -4; GIV Gai3 FP = -61*

smiles: O=C1/C(=C/c2ccc(N3CCOCC3)cc2)CC/C1=C\c1ccc(N2CCOCC2)cc1
  Sa growth 42C = 105; HCMV UL50-53 inh = x; GIV Gai3 FP = 133

smiles: O=C1/C(=C/c2ccc(N3CCOCC3)cc2)Cc2ccccc21
  Sa growth 42C = 90; HCMV UL50-53 inh = x; GIV Gai3 FP = -75*

smiles: CN(C)c1ccc(/C=C2\CCC/C(=C\c3ccccc3)C2=O)cc1
  Sa growth 42C = 96; HCMV UL50-53 inh = x; GIV Gai3 FP = 155

smiles: CN(C)c1ccc(/C=C2\Cc3ccccc3C2=O)cc1
  Sa growth 42C = 89; HCMV UL50-53 inh = x; GIV Gai3 FP = -75*

smiles: O=C(Cn1cnc2c(cnn2-c2ccc(F)cc2)c1=O)NC1CCCC1
  Sa growth 42C = 97; HCMV UL50-53 inh = -4; GIV Gai3 FP = 102

smiles: COc1ccc(C2=C(C)C(=O)N(CC(=O)NC3CCCC3)S2(=O)=O)cc1
  Sa growth 42C = x; HCMV UL50-53 inh = -37; GIV Gai3 FP = 99

smiles: CCC(=O)NCCSc1c(-c2ccc(OC)cc2)[nH]c2ccccc12
  Sa growth 42C = x; HCMV UL50-53 inh = -19; GIV Gai3 FP = x

smiles: O=C1/C(=C/c2ccc(O)cc2)SC(=S)N1CCc1ccccc1
  Sa growth 42C = 95; HCMV UL50-53 inh = x; GIV Gai3 FP = -5.9*

smiles: CO/C=C1\SC(=S)N(CCc2ccccc2)C1=O
  Sa growth 42C = 94; HCMV UL50-53 inh = -52; GIV Gai3 FP = 154

smiles: N#Cc1c(-c2ccc3c(c2)OCO3)cc(-c2ccc(F)cc2)nc1N
  Sa growth 42C = 103; HCMV UL50-53 inh = 2; GIV Gai3 FP = 111

smiles: N#Cc1c(N)oc(-c2ccc3c(c2)OCO3)c1-c1ccc2c(c1)OCO2
  Sa growth 42C = 91; HCMV UL50-53 inh = -55; GIV Gai3 FP = -54*

smiles: CCOc1ccc(N/C(SCc2ccc(Cl)cc2)=C(/C#N)C(=O)NCc2ccc3c(c2)OCO3)cc1
  Sa growth 42C = x; HCMV UL50-53 inh = x; GIV Gai3 FP = 107

smiles: CC(C)(C)c1csc(NC(=O)CSC2=NCCS2)n1
  Sa growth 42C = 88; HCMV UL50-53 inh = 4; GIV Gai3 FP = 103

smiles: CC(Nc1nc(C(C)(C)C)cs1)=C(C#N)C#N
  Sa growth 42C = 4.2*; HCMV UL50-53 inh = -19; GIV Gai3 FP = x

smiles: Cc1ccc(-c2noc(-c3ccc(NCCc4ccc(S(N)(=O)=O)cc4)nc3)n2)cc1
  Sa growth 42C = x; HCMV UL50-53 inh = x; GIV Gai3 FP = 101

smiles: CC(C)(C)c1cc(CCOC(=O)CCc2cc(C(C)(C)C)c(O)c(C(C)(C)C)c2)cc(C(C)(C)C)c1O
  Sa growth 42C = x; HCMV UL50-53 inh = x; GIV Gai3 FP = 100

smiles: CS(=O)(=O)c1ccccc1-c1nnc(NC(=O)c2ccc3c(c2)OCCO3)o1
  Sa growth 42C = 74; HCMV UL50-53 inh = x; GIV Gai3 FP = 104

smiles: CSc1cccc(-c2nnc(NC(=O)c3ccc4c(c3)OCCO4)o2)c1
  Sa growth 42C = 7.7*; HCMV UL50-53 inh = x; GIV Gai3 FP = 102

smiles: CC(C)CCNC(=O)c1noc2ncnc(N3CCOCC3)c12
  Sa growth 42C = x; HCMV UL50-53 inh = -28; GIV Gai3 FP = 104

smiles: CCOC(=O)c1c(/N=C/C2C(=O)NC(=S)NC2=O)sc2c1CCCCC2
  Sa growth 42C = 125; HCMV UL50-53 inh = x; GIV Gai3 FP = -21*

smiles: C=CC(=O)Nc1sc2c(c1C(=O)OCC)CCCC2
  Sa growth 42C = 83; HCMV UL50-53 inh = -4; GIV Gai3 FP = x

smiles: CC1=C(C(=O)OCC(C)C)C(c2ccccc2F)CC(=O)N1 (stereo not drawn)
  Sa growth 42C = x; HCMV UL50-53 inh = -22; GIV Gai3 FP = 94

smiles: COc1ccc(-c2nnc(SCc3cc(=O)n4c(C)csc4n3)o2)cc1
  Sa growth 42C = x; HCMV UL50-53 inh = -15; GIV Gai3 FP = 103

smiles: CCc1c(C)sc2c1CCN(Cc1ccccc1C#N)C2c1ccccc1 (stereo not drawn)
  Sa growth 42C = 98; HCMV UL50-53 inh = x; GIV Gai3 FP = 112

smiles: CCc1c(C)sc2c1CCN(Cc1ccccc1)C2c1ccccc1 (stereo not drawn)
  Sa growth 42C = -1.1*; HCMV UL50-53 inh = x; GIV Gai3 FP = 113

# Screening data deposited in PubChem by ICCB-Longwood Screening Facility, Harvard Medical School.
